This data set can be described thus: Kinetic solubility.

Regarding “Ethyl 1‐(4‐(3‐(3,5‐Dichlorophenyl)Ureido)‐2‐(Trifluoromethyl)Benzyl)Piperidine‐4‐Carboxylate Hydrochloride [Compound 67]”, the Kinetic solubility is <2,0 µM.

The record behind these values is article PMC12811997 (Chemmedchem, 2025).
